The target in the experiment is Replicase polyprotein 1ab (Severe acute respiratory syndrome coronavirus 2, UniProt P0DTD1). As to the kind of experiment: Hit profiling assay with DTT.

`CN1CCN(C2=C(Cl)C(=O)N(c3ccc(Cl)c(Cl)c3)C2=O)CC1` [3-chloro-1-(3,4-dichlorophenyl)-4-(4-methyl-1-piperazinyl)pyrrole-2,5-dione]: the IC50 turned out to be 1560 nM.

By IC50 is commonly meant the concentration that inhibits the measured activity by half. A lower IC50 goes with greater potency in that assay.

The values are drawn from BindingDB's records for doi:10.1101/2020.12.16.422677 (Fraunhofer Institute for Translational Medicine and …, 2020).
